This is an account of results in paper PMC5260928 (Bioorganic & medicinal chemistry, 2016).

A word on the Kd: it is the constant that tells how readily two partners part at equilibrium. A higher Kd goes with a looser complex.

The assay deals with gp41 hydrophobic pocket (Fe(envC)3) (Human immunodeficiency virus type 1 group M subtype B, UniProt P04578). Briefly: Surface plasmon resonance. In kind it is binding, HIV-1. The note with it: for Kd: kd/ka, SPR 1:1 binding kinetic analysis; for kon: pH 7, read-out: ka, SPR 1:1 binding kinetic analysis, RUmax fixed; for ka1 / ka2: bivalent binding model. (Surface plasmon resonance follows binding to a sensor surface in real time, without labels.)

Consider `O=C(CCc1c[nH]c2ccccc12)NCCCCCC(=O)Nc1ccc(C(=O)N[C@@H](Cc2c[nH]c3ccccc23)C(=O)O)cc1OCc1ccc(Cl)cc1` [Compound 11], for which the equilibrium dissociation constant (Kd) is 14 µM and the kon worked out at 13700 M⁻¹ s⁻¹.
With `O=C(CCc1c[nH]c2ccccc12)NCCCCCC(=O)Nc1ccc(C(=O)N[C@@H](Cc2c[nH]c3ccccc23)C(=O)O)cc1OCCc1c[nH]c2ccccc12` [Compound 10], the kon worked out at 11000 M⁻¹ s⁻¹.
Turning to `O=C(CCC(=O)Nc1ccc(C(=O)N[C@@H](Cc2c[nH]c3ccccc23)C(=O)O)cc1OCCc1c[nH]c2ccccc12)NCCOCCOCCOCCNC(=O)CCC(=O)Nc1ccc(C(=O)N[C@@H](Cc2c[nH]c3ccccc23)C(=O)O)cc1OCCc1c[nH]c2ccccc12` [Compound 7], the ka1 is 2691 M⁻¹ s⁻¹, the ka2 was found to be 4.54e-5 RU^−1s^−1, binding was characterised by a dissociation constant (Kd) of 16 µM and the kon was found to be 3700 M⁻¹ s⁻¹.
`Nc1ccc(C(=O)N[C@@H](Cc2c[nH]c3ccccc23)C(=O)O)cc1OCc1ccc(Cl)cc1` [Compound 4, H2N-[Phe4Cl]-Trp-OH] showed a Kd of 12 µM.
With `Nc1ccc(C(=O)N[C@@H](Cc2c[nH]c3ccccc23)C(=O)O)cc1OCCc1c[nH]c2ccccc12` [Compound 3, H2N-[Trp]-Trp-OH], binding was put at a Kd of 16 µM.
For `O=C(CCC(=O)Nc1ccc(C(=O)N[C@@H](Cc2c[nH]c3ccccc23)C(=O)O)cc1OCc1ccc(Cl)cc1)NCCOCCOCCOCCNC(=O)CCC(=O)Nc1ccc(C(=O)N[C@@H](Cc2c[nH]c3ccccc23)C(=O)O)cc1OCc1ccc(Cl)cc1` [Compound 8], the ka1 came to 1489 M⁻¹ s⁻¹, the ka2 is listed as 2.27e-5 RU^−1s^−1, the Kd was 21 µM and the kon came to 1800 M⁻¹ s⁻¹.
